Molecular target: Interleukin enhancer-binding factor 3 (Homo sapiens, UniProt Q12906)
Assay: Binding affinity to ILF3 (unknown origin) assessed as association rate constant at upto 1 uM by SPR method

By UniProt entry, the sequences of proteins in these tests, tags left out.
UniProt Q12906, whole entry: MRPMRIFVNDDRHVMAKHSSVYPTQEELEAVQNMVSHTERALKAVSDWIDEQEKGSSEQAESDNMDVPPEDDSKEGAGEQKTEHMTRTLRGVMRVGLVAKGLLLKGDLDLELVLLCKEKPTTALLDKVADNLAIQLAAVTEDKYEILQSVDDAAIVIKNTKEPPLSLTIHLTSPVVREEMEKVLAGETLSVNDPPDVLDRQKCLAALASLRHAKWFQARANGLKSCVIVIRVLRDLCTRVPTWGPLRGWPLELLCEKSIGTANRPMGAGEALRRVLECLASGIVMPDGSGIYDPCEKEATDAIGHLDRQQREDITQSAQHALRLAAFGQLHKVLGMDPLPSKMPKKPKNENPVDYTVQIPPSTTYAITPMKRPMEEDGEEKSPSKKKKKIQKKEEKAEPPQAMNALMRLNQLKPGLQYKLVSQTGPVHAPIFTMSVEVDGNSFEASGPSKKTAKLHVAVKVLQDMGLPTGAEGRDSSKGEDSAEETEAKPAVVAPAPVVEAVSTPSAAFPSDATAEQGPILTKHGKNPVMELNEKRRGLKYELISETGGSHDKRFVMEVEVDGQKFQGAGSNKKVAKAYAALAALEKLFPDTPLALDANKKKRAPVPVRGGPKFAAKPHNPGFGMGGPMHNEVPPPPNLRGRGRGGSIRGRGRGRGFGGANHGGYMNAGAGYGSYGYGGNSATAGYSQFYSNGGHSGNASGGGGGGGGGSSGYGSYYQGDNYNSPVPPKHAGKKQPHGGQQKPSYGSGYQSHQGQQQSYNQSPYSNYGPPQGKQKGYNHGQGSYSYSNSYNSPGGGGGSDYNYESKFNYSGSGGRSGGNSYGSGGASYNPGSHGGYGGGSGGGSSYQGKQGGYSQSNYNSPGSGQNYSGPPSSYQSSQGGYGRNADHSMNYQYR

Row | SMILES | K
1 | Cn1c[n+](C)c2c1C(=O)c1cc3ccccc3cc1C2=O | 360000 M⁻¹ s⁻¹
2 | COCC[n+]1c2c(n(Cc3cnccn3)c1C)C(=O)c1ccccc1C2=O.[Br-] [SEPANTRONIUM BROMIDE] | 110000 M⁻¹ s⁻¹

— ChEMBL document CHEMBL5375989, “Pioneering 4,11-Dioxo-4,11-dihydro-1H-anthra[2,3-d]imidazol-3-ium Compounds as Promising Survivin Inhibitors by Targeting ILF3/NF110 for Cancer Therapy” (J Med Chem, 2023)
